Experiments:
[1] = target: slow bovine masseter skeletal myofibrils (Bos taurus, UniProt Q9BE39); experiment: Myofibril ATPase, bovine masseter; format: biochemical; conditions: read-out: IC50, myofibril ATPase, 100% type I, at pCa50
[2] = target: fast skeletal S1 from rabbit psoas (Oryctolagus cuniculus, UniProt A0A5F9CQ93); experiment: Actin-activated myosin S1 ATPase, fast skeletal; conditions: rabbit psoas S1 fragment
Protocol: Smooth muscle chicken gizzard S1 was purchased from Cytoskeleton Inc. Other myosin S1 was prepared via published protocols ([21]). Briefly, fresh rabbit psoas and frozen porcine ventricular muscle (Pel-freez) were extracted in 0.3 M KCl, 0.15 M KH2PO4, 1 mM EGTA, 1 mM ATP, 1 mM DTT, pH 6.5, at 4°C. Full-length myosin was purified from each extract via low-ionic precipitations with final precipitation into PM12 buffer (12 mM PIPES, pH 7.0, 2 mM MgCl2). Purified myosin was resuspended in PIPES/EDTA buffer (20 mM PIPES, pH 6.8, 10 mM EDTA, 1 mM DTT) and reacted with 0.2 mg/mL α-chymotrypsin for 30 minutes at room temperature. Proteolysis was quenched with PMSF (final concentration 100 μM), and the reaction was centrifuged for 45 minutes at 230,000g. S1 fragment in the supernatant was dialyzed into PM12 with 0.02% sodium azide and clarified by centrifugation. Sucrose was added to 10% w/v and flash-frozen in liquid N2 and stored at –80°C. […]
A lactate dehydrogenase/pyruvate kinase enzyme-coupled system ([62]) was used to monitor ATP hydrolysis rates in various muscle preparations. […] A multidrop cassette (Thermo Fisher Scientific) dispensed 10 μL of the coupled enzyme system, calcium, and myofibrils to 10 μL ATP, NADH and PEP to initiate the reaction prior to reading on a plate reader (Envision, Perkin Elmer) for 10 minutes per plate at room temperature. […]

Protein sequences, listed by entry. Tags and fused reporters are not part of them. Residues count along the entry.
UniProt A0A5F9CQ93, 1-1933: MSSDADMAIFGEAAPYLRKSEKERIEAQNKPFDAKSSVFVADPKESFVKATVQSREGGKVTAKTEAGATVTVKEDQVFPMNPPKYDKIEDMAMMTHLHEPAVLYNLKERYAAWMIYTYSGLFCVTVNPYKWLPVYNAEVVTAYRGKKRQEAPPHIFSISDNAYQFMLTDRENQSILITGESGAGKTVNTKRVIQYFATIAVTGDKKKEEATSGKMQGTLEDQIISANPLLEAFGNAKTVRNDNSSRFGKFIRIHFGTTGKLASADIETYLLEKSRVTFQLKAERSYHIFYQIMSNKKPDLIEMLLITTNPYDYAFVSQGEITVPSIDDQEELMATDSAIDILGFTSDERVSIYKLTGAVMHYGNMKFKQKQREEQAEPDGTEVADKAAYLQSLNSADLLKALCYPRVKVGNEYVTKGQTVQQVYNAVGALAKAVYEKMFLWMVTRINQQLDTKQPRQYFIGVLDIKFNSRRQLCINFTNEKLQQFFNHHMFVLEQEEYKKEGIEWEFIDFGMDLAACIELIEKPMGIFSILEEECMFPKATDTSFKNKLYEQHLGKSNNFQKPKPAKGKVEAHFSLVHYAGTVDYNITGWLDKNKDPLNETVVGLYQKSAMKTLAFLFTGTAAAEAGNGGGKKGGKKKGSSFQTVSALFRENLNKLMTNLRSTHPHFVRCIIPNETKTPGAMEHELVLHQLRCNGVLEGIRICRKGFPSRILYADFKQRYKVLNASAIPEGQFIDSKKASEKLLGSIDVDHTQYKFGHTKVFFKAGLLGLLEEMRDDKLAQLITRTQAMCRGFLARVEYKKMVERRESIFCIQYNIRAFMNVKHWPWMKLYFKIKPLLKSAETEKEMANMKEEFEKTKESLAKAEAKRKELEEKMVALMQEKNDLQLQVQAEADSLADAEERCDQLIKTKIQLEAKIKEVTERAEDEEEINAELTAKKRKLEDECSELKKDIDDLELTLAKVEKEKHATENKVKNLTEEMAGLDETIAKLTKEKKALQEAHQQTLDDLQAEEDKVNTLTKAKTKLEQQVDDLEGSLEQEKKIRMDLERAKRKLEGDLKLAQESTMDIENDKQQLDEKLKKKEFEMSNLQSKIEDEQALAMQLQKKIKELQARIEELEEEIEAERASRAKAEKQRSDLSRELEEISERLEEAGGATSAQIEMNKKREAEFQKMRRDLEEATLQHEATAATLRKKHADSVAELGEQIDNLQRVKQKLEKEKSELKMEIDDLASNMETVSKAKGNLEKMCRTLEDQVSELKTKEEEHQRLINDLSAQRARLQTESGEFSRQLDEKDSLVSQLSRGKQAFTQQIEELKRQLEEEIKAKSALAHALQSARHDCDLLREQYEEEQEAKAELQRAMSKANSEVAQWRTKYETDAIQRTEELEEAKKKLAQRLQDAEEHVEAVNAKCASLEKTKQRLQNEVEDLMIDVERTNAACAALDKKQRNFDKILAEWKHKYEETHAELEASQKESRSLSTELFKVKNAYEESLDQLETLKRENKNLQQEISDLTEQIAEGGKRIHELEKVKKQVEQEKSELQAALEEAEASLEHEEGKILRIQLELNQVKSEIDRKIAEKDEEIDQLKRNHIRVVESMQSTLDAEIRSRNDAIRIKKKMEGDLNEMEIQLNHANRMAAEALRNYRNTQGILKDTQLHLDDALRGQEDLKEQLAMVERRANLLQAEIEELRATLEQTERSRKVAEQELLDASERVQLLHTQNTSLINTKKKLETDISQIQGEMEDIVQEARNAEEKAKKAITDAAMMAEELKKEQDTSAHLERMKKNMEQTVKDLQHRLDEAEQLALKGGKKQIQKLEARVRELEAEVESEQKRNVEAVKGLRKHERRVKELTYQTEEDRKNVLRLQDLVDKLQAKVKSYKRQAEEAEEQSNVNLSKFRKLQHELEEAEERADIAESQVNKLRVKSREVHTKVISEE
UniProt A0A5F9CQ93, 1-837 limits assumed: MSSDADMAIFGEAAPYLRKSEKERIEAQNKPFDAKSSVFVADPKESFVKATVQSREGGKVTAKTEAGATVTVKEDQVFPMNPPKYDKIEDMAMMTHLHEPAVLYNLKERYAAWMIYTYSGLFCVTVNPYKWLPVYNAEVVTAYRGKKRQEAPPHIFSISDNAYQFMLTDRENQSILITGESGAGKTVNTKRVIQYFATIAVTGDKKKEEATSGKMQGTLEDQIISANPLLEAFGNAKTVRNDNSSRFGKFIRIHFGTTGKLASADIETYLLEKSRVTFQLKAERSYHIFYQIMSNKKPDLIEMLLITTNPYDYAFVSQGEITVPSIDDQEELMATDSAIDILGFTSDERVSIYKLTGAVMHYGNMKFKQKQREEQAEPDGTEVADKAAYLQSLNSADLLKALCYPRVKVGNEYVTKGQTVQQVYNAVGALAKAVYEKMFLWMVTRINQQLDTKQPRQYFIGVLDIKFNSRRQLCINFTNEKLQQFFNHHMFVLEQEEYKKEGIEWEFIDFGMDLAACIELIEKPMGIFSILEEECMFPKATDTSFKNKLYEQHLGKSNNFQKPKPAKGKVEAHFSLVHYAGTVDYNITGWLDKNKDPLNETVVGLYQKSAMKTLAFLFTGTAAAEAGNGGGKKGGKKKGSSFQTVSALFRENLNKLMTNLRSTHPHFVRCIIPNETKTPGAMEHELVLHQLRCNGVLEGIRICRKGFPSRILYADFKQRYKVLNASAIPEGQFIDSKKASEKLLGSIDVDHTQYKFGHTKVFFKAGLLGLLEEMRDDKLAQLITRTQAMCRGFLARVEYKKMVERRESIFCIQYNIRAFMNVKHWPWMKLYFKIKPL
UniProt P79293, whole entry: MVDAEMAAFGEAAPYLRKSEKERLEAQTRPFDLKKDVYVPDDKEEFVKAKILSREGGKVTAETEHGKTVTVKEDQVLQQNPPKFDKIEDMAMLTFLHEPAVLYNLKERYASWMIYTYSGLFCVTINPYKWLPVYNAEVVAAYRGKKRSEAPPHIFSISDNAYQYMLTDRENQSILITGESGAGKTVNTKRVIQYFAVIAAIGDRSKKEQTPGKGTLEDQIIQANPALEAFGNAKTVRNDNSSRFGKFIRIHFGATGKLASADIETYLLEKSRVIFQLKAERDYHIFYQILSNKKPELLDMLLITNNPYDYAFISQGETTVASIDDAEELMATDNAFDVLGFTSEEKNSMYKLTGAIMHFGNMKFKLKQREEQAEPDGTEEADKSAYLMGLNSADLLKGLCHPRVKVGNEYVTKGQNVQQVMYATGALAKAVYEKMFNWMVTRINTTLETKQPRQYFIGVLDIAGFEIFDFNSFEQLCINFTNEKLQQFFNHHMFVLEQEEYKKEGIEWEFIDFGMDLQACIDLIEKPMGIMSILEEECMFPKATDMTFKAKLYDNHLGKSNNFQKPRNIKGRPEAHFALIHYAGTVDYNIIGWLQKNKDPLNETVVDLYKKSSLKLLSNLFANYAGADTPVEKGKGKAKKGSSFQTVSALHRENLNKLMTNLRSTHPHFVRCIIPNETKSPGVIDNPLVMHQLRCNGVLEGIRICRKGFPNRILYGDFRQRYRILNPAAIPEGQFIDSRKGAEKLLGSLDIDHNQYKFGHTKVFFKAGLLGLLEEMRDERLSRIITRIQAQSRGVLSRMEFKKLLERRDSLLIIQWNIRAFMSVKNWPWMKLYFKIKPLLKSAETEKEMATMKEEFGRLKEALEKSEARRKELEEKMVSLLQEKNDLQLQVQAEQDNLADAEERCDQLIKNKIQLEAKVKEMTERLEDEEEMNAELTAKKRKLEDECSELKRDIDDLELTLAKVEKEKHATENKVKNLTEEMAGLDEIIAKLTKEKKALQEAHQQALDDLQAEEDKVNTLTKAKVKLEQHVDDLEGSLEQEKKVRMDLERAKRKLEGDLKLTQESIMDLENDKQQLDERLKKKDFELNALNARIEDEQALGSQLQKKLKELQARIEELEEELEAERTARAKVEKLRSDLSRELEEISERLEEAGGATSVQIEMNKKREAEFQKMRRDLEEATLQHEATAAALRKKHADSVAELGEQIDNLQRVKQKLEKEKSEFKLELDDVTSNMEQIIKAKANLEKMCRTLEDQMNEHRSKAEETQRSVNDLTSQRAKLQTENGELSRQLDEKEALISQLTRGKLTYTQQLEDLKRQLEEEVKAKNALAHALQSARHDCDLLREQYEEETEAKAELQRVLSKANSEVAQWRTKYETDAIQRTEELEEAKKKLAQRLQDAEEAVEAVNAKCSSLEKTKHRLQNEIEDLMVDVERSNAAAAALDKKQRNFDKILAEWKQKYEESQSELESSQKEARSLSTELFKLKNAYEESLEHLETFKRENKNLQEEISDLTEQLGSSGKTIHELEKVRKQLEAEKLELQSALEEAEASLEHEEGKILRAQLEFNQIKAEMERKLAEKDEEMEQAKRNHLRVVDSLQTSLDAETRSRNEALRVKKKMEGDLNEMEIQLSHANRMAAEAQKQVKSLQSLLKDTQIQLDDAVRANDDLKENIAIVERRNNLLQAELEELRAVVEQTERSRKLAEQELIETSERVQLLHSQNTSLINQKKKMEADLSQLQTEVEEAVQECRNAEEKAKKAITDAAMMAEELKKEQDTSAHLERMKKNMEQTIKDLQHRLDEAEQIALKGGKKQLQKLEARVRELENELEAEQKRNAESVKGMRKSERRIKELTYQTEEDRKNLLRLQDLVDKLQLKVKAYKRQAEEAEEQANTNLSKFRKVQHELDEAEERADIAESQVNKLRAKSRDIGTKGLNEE
UniProt P02602, 2-192 partner limits assumed: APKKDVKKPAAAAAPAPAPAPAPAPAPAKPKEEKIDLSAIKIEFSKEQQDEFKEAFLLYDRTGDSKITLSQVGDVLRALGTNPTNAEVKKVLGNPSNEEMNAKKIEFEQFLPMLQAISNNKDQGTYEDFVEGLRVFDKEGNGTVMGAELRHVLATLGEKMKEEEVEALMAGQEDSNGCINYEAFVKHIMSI

[3] = target: Neonatal Rat (P1) myofibrils; experiment: Myofibril ATPase, neonatal rat; format: biochemical; conditions: read-out: IC50, myofibril ATPase, 100% neonatal/embryonic MHC
Protocol: (§1) Myofibrils were prepared from various animals and tissues: rabbit psoas muscle and porcine cardiac muscle were purchased from Pel-Freez Biologicals. Human bicep and soleus muscle were purchased from BioIVT, and neonatal rat muscle was obtained in house. All myofibrils were prepared using published methods ([21]).
(§2) A lactate dehydrogenase/pyruvate kinase enzyme-coupled system ([62]) was used to monitor ATP hydrolysis rates in various muscle preparations. Rabbit psoas myofibrils were used for high-throughput screening at pCa 6.25 at 0.25 mg/mL. A multidrop cassette (Thermo Fisher Scientific) dispensed 10 μL of the coupled enzyme system, calcium, and myofibrils to 10 μL ATP, NADH and PEP to initiate the reaction prior to reading on a plate reader (Envision, Perkin Elmer) for 10 minutes per plate at room temperature. Hits were reconfirmed, and secondary assays were used to evaluate selectivity, including bovine cardiac myofibrils (pCa 5.86) and enzyme coupled hits with a hexokinase screen (Sigma-Aldrich).

[4] = target: fast myofibril ATPase from rabbit psoas muscle (Oryctolagus cuniculus, UniProt A0A5F9CQ93); experiment: Myofibril ATPase, rabbit psoas
Protocol: as §1, §2

DBA/2J mdx mouse = experiment: 12-week dosing in DBA/2J mdx mice (fibrosis); format: in vivo; conditions: 12 weeks, chow
Source text: C57BL/6 (stock no. 000664), C57BL/10J (stock no. 000665, control for mdx experiments), C57BL/10ScSn-Dmd^mdx/J (mdx, stock no. 001801), and D2.B10 (DBA/2-congenic) Dmd^mdx (DBA/2J mdx, stock no. 013141) mice were from The Jackson Laboratory. Sprague-Dawley rats were purchased from Charles River Laboratories. For ex vivo experiments, mice were 10–16 weeks old. For in situ experiments, mice were 8–14 weeks of age. For in vivo chronic dosing studies, mdx and DBA/2J mdx were 4–5 weeks of age at study start. Dosing was via a 10 mL/kg suspension (1% methyl cellulose, 0.1% Tween 80 in water). For studies in 14-day-old preweaning mice, PO dosing was via syrup suspension (3 mg/kg/d). […]
For sterile muscle injury, mice were anesthetized with isoflurane and 50 μL cardiotoxin (12 × 10^–6 M, 217503, Millipore) injected in the TA muscle. […] 8 μm cryosections were cut and stained with H&E. For each analysis, more than 10 slides (per condition/group) containing 6 muscle sections/sample were used, and myofibers in the injured area were counted and measured with a Mirax digital scanner and HALO software ([68]). […] Image analysis was performed using ImarisX64 software (Bitplane AG), and fiber sizing was calculated using minimal Feret’s diameter ([69]). […] Fiber type, size, and central nucleation were quantified with analysis via SMASH ([70]) and ImageJ (NIH). […]

[5] = target: Rabbit Cardiac myofibrils; experiment: Myofibril ATPase, rabbit cardiac; conditions: read-out: IC50, myofibril ATPase, 25% MHCα, 75% MHC β, at pCa 50
Human Cardiac myofibrils = Human Cardiac myofibrils (Homo sapiens, UniProt P12883); experiment: Myofibril ATPase, human cardiac; conditions: read-out: IC50, myofibril ATPase, 7% MHCα, 93% MHCβ
Protocol: as §1, §2

Human Bicep myofibrils = experiment: Myofibril ATPase, human bicep; format: biochemical; conditions: read-out: IC50, myofibril ATPase, 50% Type I, 50% IIa, IIx
Protocol: as §1, §2

[6] = system: mouse gastrocnemius myofibrils; experiment: Myofibril ATPase, mouse gastrocnemius
[7] = target: Porcine Ventricle myofibrils (Sus scrofa, UniProt P79293); experiment: Myofibril ATPase, porcine ventricle; conditions: read-out: IC50, myofibril ATPase, 100% MHC β
Protocol: as §1, §2

mouse TA myofibrils = experiment: Myofibril ATPase, mouse TA
mouse TA muscle = experiment: In situ TA force and lengthening injury; conditions: mdx TA muscle, oral, 2 lengthening contractions
Protocol: Measurement of isometric force and eccentric injury response in situ was performed in mouse TA muscle based on published protocols ([30]). Mice were anesthetized with 2% isoflurane (0.7%–1.5% maintenance) on a 37°C platform. The distal tendon to the TA and EDL muscle was attached with 4-0 suture a servomotor (Aurora Scientific). The sciatic nerve was exposed at the knee for hook electrodes. For compound assessment, baseline isometric contraction was assessed at 25–175 Hz (9 mA, 300 ms) followed by 100 Hz stimuli every 5 minutes. After 15 minutes, compound was dosed PO, and recording continued for 4 hours followed by a second force frequency. For in situ eccentric injury, compound was administered PO, muscle was stimulated every 5 minutes at 100 Hz for 3.5 hours, and then 2 lengthening contractions were performed (10 min apart, 100 ms at 150 Hz, then lengthening 0.2 L0 at 2 L0/s and hold for 100 ms). Isometric force before and 10 minutes after the injury contractions was recorded.

Human Soleus myofibrils = experiment: Myofibril ATPase, human soleus; format: biochemical; conditions: read-out: IC50, myofibril ATPase, 66% Type I, 33% IIa, IIx, at pCa 50
Protocol: as §1, §2

## CCNC(=O)Cn1nc(-c2ccc(OCC(F)(F)F)cc2)ccc1=O
[1]
  IC50: > 100000 nM
[2]
  Maximum Inhibition (%): > 95%
[3]
  IC50: 800 nM
[4]; rabbit psoas myofibrils, bottom plateau of 4-parameter logistic fit
  Maximum Inhibition (%): 98%
[4]; read-out: IC50, myofibril ATPase, rabbit psoas, 96% IIx/d, at pCa50
  IC50: 1800 nM
DBA/2J mdx mouse
  left ventricular fibrosis: significant decreases in left ventricular fibrosis
[5]
  IC50: > 100000 nM
Human Cardiac myofibrils
  IC50: > 100000 nM
Human Bicep myofibrils
  IC50: 1000 nM
[6]; mouse gastroc myofibrils
  Maximum Inhibition (%): 98%
[6]; read-out: IC50, myofibril ATPase, mouse gastrocnemius, 21% IIa, 15% IIx, 56% IIb
  IC50: 600 nM
[7]
  IC50: > 100000 nM
Mouse TA myofibrils; mouse TA myofibrils
  Maximum Inhibition (%): > 99%
Mouse TA myofibrils; read-out: IC50, myofibril ATPase, mouse TA, mixed IIa, IIx, IIb
  IC50: 700 nM
Mouse TA muscle
  strength drop after in situ lengthening injury: protective
Human Soleus myofibrils
  IC50: 2400 nM
